EP2363413A1 (YISSUM RESEARCH DEVELOPMENT COMPANY OF THE HEBREW …, dated 2011)

Chains of the proteins cited; added tags and fusions are not shown. Residues count along the entry.
UniProt P42081, 20-239 limits assumed: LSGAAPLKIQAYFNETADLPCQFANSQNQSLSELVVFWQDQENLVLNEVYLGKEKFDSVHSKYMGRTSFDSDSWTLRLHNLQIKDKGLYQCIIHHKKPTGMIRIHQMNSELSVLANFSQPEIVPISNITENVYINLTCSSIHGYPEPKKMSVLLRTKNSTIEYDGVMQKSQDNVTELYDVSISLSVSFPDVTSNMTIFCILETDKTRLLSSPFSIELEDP

Target: soluble B7-2 (sB7-2), human B7-2 extracellular domain fused to His6-tagged human IgG1 Fc (human) (UniProt P42081)
Assay: SPR (BIAcore 3000, 25°C), sCD28 immobilized on CM5 chip, sB7-2 injected

Question: “soluble CD28 (sCD28), human CD28 extracellular domain fused to His6-tagged human IgG1 Fc (from UniProt P10747 19-152) (Fc fusion)” was tested. Which Kd did it give?
Answer: 0.019 µM
